Laboratory results as given in patent US5518735A, “Meta-substituted phenylalanine derivatives” (priority 1990, dated 1996).

Chains of the proteins cited; added tags and fusions are not shown. Residues count along the entry.
UniProt P00747, 97-580 partner limits assumed: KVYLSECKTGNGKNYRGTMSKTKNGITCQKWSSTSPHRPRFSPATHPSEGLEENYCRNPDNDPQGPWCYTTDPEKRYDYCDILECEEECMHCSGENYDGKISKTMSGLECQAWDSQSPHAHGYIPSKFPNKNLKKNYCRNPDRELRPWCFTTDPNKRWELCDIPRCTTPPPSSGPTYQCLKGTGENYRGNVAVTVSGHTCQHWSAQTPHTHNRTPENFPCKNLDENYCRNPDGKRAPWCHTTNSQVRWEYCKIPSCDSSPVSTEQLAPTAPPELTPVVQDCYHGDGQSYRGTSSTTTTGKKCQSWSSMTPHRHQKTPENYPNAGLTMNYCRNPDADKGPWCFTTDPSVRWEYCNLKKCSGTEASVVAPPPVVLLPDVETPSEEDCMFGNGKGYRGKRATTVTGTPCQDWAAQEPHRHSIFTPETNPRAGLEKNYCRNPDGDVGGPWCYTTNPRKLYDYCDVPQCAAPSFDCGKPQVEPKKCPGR
UniProt P00747, 581-810 limits assumed: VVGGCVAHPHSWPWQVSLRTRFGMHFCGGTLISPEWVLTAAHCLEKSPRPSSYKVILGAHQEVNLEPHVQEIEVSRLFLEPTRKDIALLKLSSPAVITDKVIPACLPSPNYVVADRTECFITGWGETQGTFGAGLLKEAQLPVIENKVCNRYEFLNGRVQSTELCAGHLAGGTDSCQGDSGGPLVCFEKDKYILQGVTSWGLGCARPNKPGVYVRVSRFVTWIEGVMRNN
UniProt P00750, 36-562: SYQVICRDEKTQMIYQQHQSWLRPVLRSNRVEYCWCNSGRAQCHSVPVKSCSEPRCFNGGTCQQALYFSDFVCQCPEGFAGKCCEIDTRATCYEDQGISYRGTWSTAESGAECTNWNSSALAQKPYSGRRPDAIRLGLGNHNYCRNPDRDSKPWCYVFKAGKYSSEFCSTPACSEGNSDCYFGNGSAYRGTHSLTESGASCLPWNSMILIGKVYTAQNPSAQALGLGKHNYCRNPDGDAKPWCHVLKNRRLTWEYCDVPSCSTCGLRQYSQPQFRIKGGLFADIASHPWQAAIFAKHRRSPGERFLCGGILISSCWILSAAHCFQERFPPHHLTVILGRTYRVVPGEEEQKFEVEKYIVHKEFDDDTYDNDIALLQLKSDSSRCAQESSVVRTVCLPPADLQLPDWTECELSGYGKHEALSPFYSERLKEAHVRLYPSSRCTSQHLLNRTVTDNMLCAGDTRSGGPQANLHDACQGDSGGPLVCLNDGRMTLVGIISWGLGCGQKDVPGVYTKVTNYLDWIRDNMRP

Columns and labels:
Assay type in all cases: biochemical
thrombin = thrombin (Bos taurus, UniProt P00735); assay: Inhibition of thrombin (dissociation constant Ki)
plasmin = molecular target: T1, plasmin (Homo sapiens, UniProt P00747); assay: Inhibition of plasmin (Ki)
T1 construct: trypsin and the related enzymes thrombin, plasmin, factor Xa, tPA

factor XIIa = molecular target: T2, factor XIIa (Homo sapiens, UniProt P00748); assay: Inhibition of factor XIIa (Ki)
T2 construct: glandular kallikrein, factor XIIa and plasma kallikrein
T2 sequence (P00748 373-615 limits assumed): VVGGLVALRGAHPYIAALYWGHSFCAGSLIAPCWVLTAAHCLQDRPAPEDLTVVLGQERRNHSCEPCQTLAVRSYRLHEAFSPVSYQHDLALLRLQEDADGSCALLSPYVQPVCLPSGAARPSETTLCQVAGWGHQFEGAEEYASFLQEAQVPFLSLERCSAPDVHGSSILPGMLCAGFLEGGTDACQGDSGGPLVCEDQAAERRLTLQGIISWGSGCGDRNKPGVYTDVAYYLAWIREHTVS

tPA = tPA (Homo sapiens, UniProt P00750); assay: Inhibition of tPA (Ki)

| SMILES | pKi (thrombin) | pKi (plasmin) | pKi (factor XIIa) | pKi (tPA) |
| --- | --- | --- | --- | --- |
| CC1CCN(C(=O)C(Cc2cccc(C(=N)N)c2)NS(=O)(=O)c2ccc3ccccc3c2)CC1 (racemic) [Compound 34] | 8.07 | – | – | – |
| N=C(N)c1ccc(C[C@H](NC(=O)CNS(=O)(=O)c2ccc3ccccc3c2)C(=O)N2CCCCC2)cc1 [NAPAP, Nα-(2-naphthylsulfonylglycyl)-4-amidinophenylalanine piperidide, reference compound] | – | 4.52 | 3.30 | 4.15 |

pKi: −log10 of the molar value.
